# Source: PubChem BioAssay AID624156 (Broad Institute, 2012)
# Only a part is listed here, and it is no random draw. Active and inactive are the calls of the source. Cut-off read from the data, not from the text of the source: active = ROS induction above about 79% (passing the limit was not always enough); inconclusive = no clear call, values can overlap the other calls.
# Test: ROS inducers in U2OS cancer cells, primary screen, cell-based, H2DCF-DA fluorescence (AID 624156);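 note: 0% = DMSO vehicle median and 100% = reference compound median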
# Settings: at 10 µM, active compounds read high
row,SMILES,ROS induction (% of piperlongumine)
1,O=C(OC1CN2CCC1CC2)c1ccc(Cl)cc1 (stereo not given),inactive: 17.2%
2,Cc1cccc(OCC(=O)OC2CN3CCC2CC3)c1 (stereo not given),inactive: 16.3%
3,Cc1ccc(C(=O)OC2CN3CCC2CC3)cc1 (stereo not given),inactive: 0.486%
4,O=P1(Nc2ccccn2)COc2ccccc2OC1,inactive: 12.5%
5,CN(C(=O)Cc1ccc(Cl)c(Cl)c1)[C@H]1CCCC[C@@H]1N1CCCC1,inactive: 1.35%
